Where two headings read alike, the source gives them in different places.
Tested on: Su/Hx rats
Conditions: 4 weeks; for plasma levels of BNP: Su/Hx vehicle 0.23±0.1, sham 0.1±0.01; for RV hypertrophy (RV:LV, RV weight normalized to LV and septum): Su/Hx vehicle 0.49±0.1, sham 0.25±0.01; for diastolic PAP: Su/Hx vehicle 35±8, sham 11±2; for mean PAP: Su/Hx vehicle 49±11, sham 15±1; for completely muscularized arterioles: Su/Hx vehicle about 56.6%; for systolic PAP: mean±SEM, Su/Hx vehicle 79±21, sham 19±1

## O=C(Nc1cccc(-c2nncn2C2CC2)c1)c1cc(-n2cnc(C3CC3)c2)ccn1 [Compound 4, 4-(4-cyclopropyl-1H-imidazol-1-yl)-N-(3-(4-cyclopropyl-4H-1,2,4-triazol-3-yl)phenyl)picolinamide]
0.1% in chow
  plasma levels of BNP: 0.1 ± 0.05 ng/mL
  RV hypertrophy (RV:LV, RV weight normalized to LV and septum): 0.39±0.1
  diastolic PAP: 26±7 mmHg
  mean PAP: 35±11 mmHg
  completely muscularized arterioles: 35.6%
  systolic PAP: 52±22 mmHg
0.2% in chow
  plasma levels of BNP: 0.1 ± 0.1 ng/mL
  RV hypertrophy (RV:LV, RV weight normalized to LV and septum): 0.35±0.11
  diastolic PAP: 20±5 mmHg
  mean PAP: 27±8 mmHg
  completely muscularized arterioles: 32.6%
  systolic PAP: 36±13 mmHg

Reference: US20160166556A1, “METHODS OF TREATING PULMONARY HYPERTENSION” (Gilead Sciences, Inc., priority 2014, published 2016)
